The values that follow come from ChEMBL document CHEMBL1122202, “Ultra-short-acting beta-adrenergic receptor blocking agents. 1. (Aryloxy)propanolamines containing esters in the nitrogen substituent” (J Med Chem, 1982).

Amino acid sequences for entries named in this document (tags omitted).
UniProt B0FL73, whole entry: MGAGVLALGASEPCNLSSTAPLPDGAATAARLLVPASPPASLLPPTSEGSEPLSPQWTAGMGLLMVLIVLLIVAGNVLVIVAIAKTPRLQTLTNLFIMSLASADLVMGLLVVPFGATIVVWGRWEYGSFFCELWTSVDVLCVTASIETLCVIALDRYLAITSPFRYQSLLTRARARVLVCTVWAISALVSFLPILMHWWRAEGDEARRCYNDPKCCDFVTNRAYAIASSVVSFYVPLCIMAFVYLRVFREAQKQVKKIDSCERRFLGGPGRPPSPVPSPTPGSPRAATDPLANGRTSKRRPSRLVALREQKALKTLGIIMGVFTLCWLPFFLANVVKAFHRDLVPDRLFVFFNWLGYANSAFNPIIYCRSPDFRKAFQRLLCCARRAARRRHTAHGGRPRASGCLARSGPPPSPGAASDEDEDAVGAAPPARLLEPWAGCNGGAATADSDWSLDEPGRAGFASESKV

The target of test [1] is T1, Beta-1 adrenergic receptor (Cavia porcellus, UniProt B0FL73). Nature of the test: In vitro ability to block beta-1 adrenergic receptor in guinea pig right atria. Particulars: read-out: pA2 (converted).
Test [2] has as its target T1, Beta-1 adrenergic receptor. Nature of the test: The compound was tested in vitro for its ability to block Beta-1 adrenergic receptor in guinea pig trachea. Type of test: tissue-based. Particulars: read-out: pA2 (converted).

For `CCOC(=O)CCNCC(O)COc1cccc(Cl)c1` (stereo unspecified), the Kb in test [1] is 39.8 nM. With `CCOC(=O)CCNCC(O)COc1ccc(Cl)cc1` (stereo unspecified), in test [1], the Kb is 398 nM.

With `CCOC(=O)CCNCC(O)COc1ccccc1` (stereo unspecified), in test [1], the Kb is 50.1 nM. On to `COC(=O)c1ccc(CNCC(O)COc2ccccc2C)cc1` (stereo unspecified), for which the values for the Kb in test [1] and in test [2] were 126 nM and 200 nM, respectively. `CCOC(=O)CCCNCC(O)COc1ccccc1` (stereo unspecified): the Kb in test [1] is 251 nM. On the same count and under the same terms, with `CCOC(=O)CNCC(O)COc1ccccc1` (stereo unspecified) the figure was 2000 nM; with `CCOC(=O)CCCNCC(O)COc1ccccc1C` (stereo unspecified), 39.8 nM. As to `CCOC(=O)CNCC(O)COc1cccc2ccccc12` (stereo unspecified), the Kb in test [1] is 631 nM. As to `COC(=O)CCNCC(O)COc1cccc2ccccc12` (stereo unspecified), the Kb in test [1] is 79.4 nM. In the case of `CCOC(=O)CCNCC(O)COc1ccccc1Cl` (stereo unspecified), in test [1], the Kb was 39.8 nM.
